## Apparent affinities of Ab-14 variants for a coronavirus HR2 peptide

Data: MIT Lincoln Laboratory AlphaSeq set, Engelhart et al. 2022, doi:10.1038/s41597-022-01779-4, as distributed in FLAb.

Binding partner: SARS-CoV-2 spike HR2 peptide, sequence PDVDLGDISGINAS.

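In library AAYL50, one, two or three CDR residues were substituted; doubles and triples were drawn at random. Affinity was read by AlphaSeq, a pooled yeast mating assay with surface-displayed partners. The frequency of each diploid, read from paired DNA barcodes, reflects how well the two displayed proteins bind. Each replicate has its own calibration line, from reference interactions of the BCL2 family. Each pool was mated in three replicate cultures.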

Ab-14 is the parent antibody, in scFv form: VH, then a (GGGGS)3 linker, then VL. The heavy chain is unchanged in all variants.
VH: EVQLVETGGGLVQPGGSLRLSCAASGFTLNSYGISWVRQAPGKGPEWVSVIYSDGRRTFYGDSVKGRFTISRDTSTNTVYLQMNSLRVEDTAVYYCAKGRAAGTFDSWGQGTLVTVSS
VL: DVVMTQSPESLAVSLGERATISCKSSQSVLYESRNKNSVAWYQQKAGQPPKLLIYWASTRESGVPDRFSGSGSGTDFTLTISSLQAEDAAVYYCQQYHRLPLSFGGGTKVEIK

Variants are written as CDR1, CDR2 and CDR3 of the light chain (limits as in the source). Parent: KSSQSVLYESRNKNSVA, WASTRES, QQYHRLPLS.
Every variant below is changed at K36 of the VL (sequential numbering).
Each Kd is an estimate from the mating assay, the geometric mean of the replicates in which the pair was seen; lower is stronger.
Where no diploid with the target was found in any replicate, the entry reads "nd": below detection, most likely a poor binder, though not proof of it.
As a blank, each scFv also met three strains without target: over library AAYL50, 18% of these pairings were detected, typically at 15 µM and seldom below 970 nM. For each scFv, signals with the empty controls are counted beside the result.

For KSSQSVLYESRNDNSVA / WASKRES / QQYHRLPLS, the assay gave 2.2 nM (3 of 3 replicates; controls 1 of 9). With KSSQSVLYESRNFNSVA / WASRRES / QQYHYLPLS the result was 150 nM (3 of 3 replicates; controls 1 of 9). Variant KSSQSVLYASRNANSVA / WASTTES / QQYHRLPLS showed 260 nM (3 of 3 replicates; controls 1 of 9). For KSSQSVLYESRNDNSVA / WASGRES / QQYHRLPLS, the assay gave 130 µM (2 of 3 replicates; controls 2 of 9). For KSSQSVLYESRNINSVA / WASTRES / QQYHRSPLM, the assay gave nd (0 of 3 replicates; controls 0 of 9). For KSSQSVLYESRNCNGVA / WASTRES / QQMHRLPLS, the assay gave 14 µM (2 of 3 replicates; controls 4 of 9).

Variant KSSQSVQYESRNRNSVA / WASTRES / QQYHRLPSS gave 1.5 µM (1 of 3 replicates; controls 0 of 9). With KSSQSRLYESRNTNSVA / WASTRES / QQYHRLPLA the result was 72 nM (3 of 3 replicates; controls 0 of 9). Variant KSSQSVLYESRNFNSVA / WASTRES / QQYIRLPLS gave 29 nM (3 of 3 replicates; controls 4 of 9). Variant KSSQSVLYESRNWNSVA / WASTVES / QQYHRLPLW showed nd (0 of 3 replicates; controls 3 of 9). Variant KSSQGVLYESRNCNSKA / WASTRES / QQYHRLPLS showed nd (0 of 3 replicates; controls 0 of 9). Variant KSSQSVLMESRFGNSVA / WASTRES / QQYHRLPLS showed 5.2 nM (3 of 3 replicates; controls 4 of 9).

With KSSQCVLYESRNGNSVA / WASTRES / QQYPRLPLS the result was 190 nM (3 of 3 replicates; controls 3 of 9). Variant KSCQSVLYESRNRDSVA / WASTRES / QQYHRLPLS gave 85 nM (2 of 3 replicates; controls 0 of 9). Variant KSSDSVLYESRNDNSVA / WASTRVS / QQYHRLPLS showed 26 nM (3 of 3 replicates; controls 5 of 9). With ISSQSVSYESRNWNSVA / WASTRES / QQYHRLPLS the result was 22 nM (3 of 3 replicates; controls 4 of 9). For KSSFMVLYESRNQNSVA / WASTRES / QQYHRLPLS, the assay gave nd (0 of 3 replicates; controls 0 of 9). Variant KSSQSVLYESRNQNSVA / WASTAES / QQYHRNPLS gave 7.2 µM (1 of 3 replicates; controls 2 of 9).

Variant KSSQSVLYESRNCNSVA / WASTRES / QQYHRLPLS showed 23 nM (3 of 3 replicates; controls 0 of 9). Variant KSSQSVLYHSRNVDSVA / WASTRES / QQYHRLPLS gave 34 nM (3 of 3 replicates; controls 1 of 9). Variant PSEQSVLYESRNCNSVA / WASTRES / QQYHRLPLS gave 790 nM (1 of 3 replicates; controls 0 of 9). Variant KSSQSVLYEIRNYNSVA / WASTRWS / QQYHRLPLS gave 31 µM (3 of 3 replicates; controls 7 of 9). For KSSQSVLYESRNTNSFA / WKSTRES / QQYHRLPLS, the assay gave 26 µM (3 of 3 replicates; controls 4 of 9). For KLSQSVLYESRNRNSVA / QASTRES / QQYHRLPLS, the assay gave 670 pM (3 of 3 replicates; controls 5 of 9).

With KCSQSVIYESRNTNSVA / WASTRES / QQYHRLPLS the result was 10 nM (3 of 3 replicates; controls 6 of 9). With KSSQSVLYESREDNSVA / WASTRES / CQYHRLPLS the result was 9.5 nM (3 of 3 replicates; controls 1 of 9). For KSSQSVLYESRNSNSVA / WASTRES / QQYHRYPLS, the assay gave 23 nM (2 of 3 replicates; controls 0 of 9). For KSSQSVLYESRNINSVA / WASTRES / QEYHRLPLS, the assay gave 130 nM (3 of 3 replicates; controls 2 of 9). For KSSKSVLYESQNSNSVA / WASTRES / QQYHRLPLS, the assay gave 3.2 nM (3 of 3 replicates; controls 2 of 9). Variant KSSQSVLYESRCWNSVK / WASTRES / QQYHRLPLS gave 310 µM (2 of 3 replicates; controls 2 of 9).

Variant KSSQSVLYESRNCNSWA / WASTWES / QQYHRLPLS showed 3.5 µM (1 of 3 replicates; controls 0 of 9). Variant ISSQSVLYESRNYNSVG / WASTRES / QQYHRLPLS gave 6.1 µM (2 of 3 replicates; controls 1 of 9). With KSSQSVLYESRNINSYA / WASTRES / QQYHRLPLD the result was 43 µM (2 of 3 replicates; controls 1 of 9). Variant MSSQSVLYESRNMNSVA / WASTRES / QQYHRDPLS showed 8.6 nM (3 of 3 replicates; controls 1 of 9). With KSSQSVLYEPRNINCVA / WASTRES / QQYHRLPLS the result was 420 nM (1 of 3 replicates; controls 1 of 9). Variant KSSQSVLFESRNQNSVA / WASMRES / QQYHRLPLS gave 8.8 nM (3 of 3 replicates; controls 0 of 9).

Parent in this assay: reference entry 4.4 nM, copy in this library 48 nM.